Test results published in patent US9663463B2, “3-azabicyclo[3.1.0]hexane derivative and use thereof for medical purpose” (priority 2013, dated 2017).
Structures can show the parent of a compound that is named as a salt.

Assay: Plasma concentration of test substance at ED50 value (mice, LC/MS/MS)
Format: in vivo
Conditions: at the ED50 value, at time of morphine administration, oral, linear regression from two doses
Procedure: The concentration of the test substances in blood plasma was confirmed by using mice of the same week-old for the same dose as that used in the evaluation of the anti-pruritic effect. The test substance was administered by forced oral administration of an administration vehicle prepared in a similar manner to that in the evaluation of the anti-pruritic effect under a non-fasting condition. The blood samples were collected from the orbital venous plexus, within from 15 minutes after the administration of the test substance to after 180 minutes at the maximum, for multiple times including the timing at which the morphine solution was intracisternally administered, under inhalation anesthesia with diethyl ether or isoflurane using a heparin-treated hematocrit tubes. The collected blood samples were immediately ice-cooled and centrifuged at 1,800 g for 15 minutes at 4° C., and the plasma fractions were transferred and stored under freezing at −30° C. or less until measurement.
The concentrations of the test substances in plasma were measured using LC/MS/MS. Furthermore, as the measurement samples for LC/MS/MS, the supernatants obtained by adding an internal standard substance and acetonitrile in an amount within a range from 5-fold to 10-fold of the amount of the plasma to the collected plasma samples, and removing proteins therefrom, was used.

SMILES: CC[C@]1(c2cccc(NS(=O)(=O)C3CC3)c2)[C@@H]2CN(CCCC3(OC)CCC(F)(F)CC3)C[C@@H]21 [Example 6-(b), N-(3-{(1R,5S,6r)-3-[3-(4,4-difluoro-1-methoxycyclohexyl)propyl]-6-ethyl-3-azabicyclo[3.1.0]hexan-6-yl}phenyl)cyclopropanesulfonamide hydrochloride]
- Plasma concentration of test substance: 7.94 nM
